Here are results for one compound from article PMC2828288 (Journal of medicinal chemistry, 2010).

Protein sequences, listed by entry. Tags and fused reporters are not part of them.
UniProt O35678, whole entry: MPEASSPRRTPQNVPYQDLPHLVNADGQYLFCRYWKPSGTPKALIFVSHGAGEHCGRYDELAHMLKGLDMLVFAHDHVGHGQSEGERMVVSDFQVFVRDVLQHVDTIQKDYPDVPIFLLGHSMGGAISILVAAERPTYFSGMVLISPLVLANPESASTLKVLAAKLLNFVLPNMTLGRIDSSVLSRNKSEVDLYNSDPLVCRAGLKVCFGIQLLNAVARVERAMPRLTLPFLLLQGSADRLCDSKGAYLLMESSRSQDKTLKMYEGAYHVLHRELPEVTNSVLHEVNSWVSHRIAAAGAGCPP

This test has as its target MAGL (Mus musculus, UniProt O35678). Kind of test: Competitive ABPP. The format is biochemical.

Take `O=C(Oc1ccc([N+](=O)[O-])cc1)N1CCC(C(O)(c2ccc3c(c2)OCO3)c2ccc3c(c2)OCO3)CC1` [Compound 1, 4-nitrophenyl 4-(dibenzo[d][1,3]dioxol-5-yl(hydroxy)methyl)piperidine-1-carboxylate]: the “improvement in MAGL potency compared with 23” value is reported as 7 fold.
